From article PMC4053365 (PLoS ONE, 2014)

Chains of the proteins cited; added tags and fusions are not shown. Lines headed by an entry give the natural chain unless they say otherwise; changes in a name come on top.
UniProt P41145: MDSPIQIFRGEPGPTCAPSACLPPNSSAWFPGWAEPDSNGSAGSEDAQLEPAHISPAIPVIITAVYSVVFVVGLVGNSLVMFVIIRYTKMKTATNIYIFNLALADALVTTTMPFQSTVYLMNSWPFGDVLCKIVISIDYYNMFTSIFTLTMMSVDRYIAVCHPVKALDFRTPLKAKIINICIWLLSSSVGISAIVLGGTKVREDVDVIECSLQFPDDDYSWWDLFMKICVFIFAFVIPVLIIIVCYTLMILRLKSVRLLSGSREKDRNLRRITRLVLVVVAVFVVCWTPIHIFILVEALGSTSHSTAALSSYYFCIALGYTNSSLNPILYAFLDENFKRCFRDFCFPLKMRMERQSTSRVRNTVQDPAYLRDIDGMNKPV

Target: human KOP receptor (Homo sapiens, UniProt P41145)
Experiment: [35S]GTPγS functional assay, CHOhKOP cell membranes
Type: biochemical
Settings: read-out: [35S]GTPγS functional assay KOP EC50, CHO membranes, mean ± SEM

5α,7α,8β-(−)N-methyl-N-[7-(1-pyrrolidinyl)-1-oxaspiro(4,5)dec-8-yl]benzeneacetamide
EC50: 42.7 nM
